# Results: patent US5744470A, “Method for treating insomnia” (Eli Lilly and Company, priority 1997, dated 1998)
# Key:
# insomnia = details: patients randomized to olanzapine or placebo
# [1] = tested on: muscarinic cholinergic receptor
# [2] = radiolabelled olanzapine
structure (smiles),measurement,setting,value
"Cc1cc2c(s1)Nc1ccccc1N=C2N1CCN(C)CC1 [olanzapine, 2-methyl-4-(4-methyl-1-piperazinyl)-10H-thieno[2,3-b][1,5]benzodiazepine]",usefulness for the treatment of insomnia,insomnia,can be useful for the treatment of insomnia
same,muscarinic cholinergic receptor activity,[1],has muscarinic cholinergic receptor activity
same,activity at the 5-HT1C receptor,5-HT1C receptor,active
same,detection in saliva,[2],can be detected in the saliva
